The source of these data is patent publication EP4847519A1, “HIGH-EFFICACY GLUCOCORTICOID COMPOUND, AND PREPARATION AND USE THEREOF” (dated 2026).

The chains behind the UniProt entries cited, without tags or fusion partners.
UniProt P04150, whole entry: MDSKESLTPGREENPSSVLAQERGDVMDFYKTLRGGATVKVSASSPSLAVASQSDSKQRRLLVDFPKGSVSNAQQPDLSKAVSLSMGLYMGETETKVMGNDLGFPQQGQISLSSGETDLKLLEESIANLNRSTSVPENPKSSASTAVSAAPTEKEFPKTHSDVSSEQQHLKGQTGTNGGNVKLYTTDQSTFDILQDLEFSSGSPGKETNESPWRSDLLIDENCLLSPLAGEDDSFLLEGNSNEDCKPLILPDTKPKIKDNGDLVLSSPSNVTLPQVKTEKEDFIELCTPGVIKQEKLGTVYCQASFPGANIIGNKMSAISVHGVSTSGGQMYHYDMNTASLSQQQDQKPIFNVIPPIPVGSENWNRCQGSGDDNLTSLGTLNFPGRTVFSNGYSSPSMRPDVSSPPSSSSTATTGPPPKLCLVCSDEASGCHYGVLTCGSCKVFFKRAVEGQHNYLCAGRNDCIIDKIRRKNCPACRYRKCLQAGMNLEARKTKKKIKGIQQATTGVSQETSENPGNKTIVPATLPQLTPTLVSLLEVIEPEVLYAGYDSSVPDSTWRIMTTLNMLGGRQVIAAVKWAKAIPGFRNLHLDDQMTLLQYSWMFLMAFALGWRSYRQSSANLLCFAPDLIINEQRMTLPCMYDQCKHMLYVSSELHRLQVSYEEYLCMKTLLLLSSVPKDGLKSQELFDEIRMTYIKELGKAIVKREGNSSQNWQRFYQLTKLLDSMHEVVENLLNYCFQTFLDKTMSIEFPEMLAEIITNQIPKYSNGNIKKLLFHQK

Structures are written as SMILES.

Assay [1] has as its system OVA-induced mouse asthma model. Description: OVA-induced mouse asthma model, differential cell counts in BALF. To be noted: for Eosinophil count / Lymphocyte count / Macrophage count / Neutrophil count / Total cell count: mean.
The target in assay [2] is Glucocorticoid Receptor (GR) (Homo sapiens, UniProt P04150). Description: GR reporter gene assay (luciferase) in GRC9/HEK293 cells. To be noted: for EC50: GRC9/HEK293 cells, luciferase activity after one day of incubation; for decrease of EC50 compared with fluticasone furoate: relative to fluticasone furoate EC50 = […].
Where [3] appears, read: high-dose group, same dose 0.2 mg/kg.
Where [4] appears, read: low-dose group (0.067 mg/kg), decreased to a certain extent.

`C[C@@H]1C[C@H]2[C@@H]3C[C@H](F)C4=CC(=O)C=C[C@]4(C)[C@@]3(F)[C@@H](O)C[C@]2(C)[C@@]1(OC(=O)c1ccco1)C(=O)SCF`: in assay [1] (0.2 mg/kg), the Eosinophil count is reported as 89.55 ×10^4, the Lymphocyte count is listed as 5.92 ×10^4, the Macrophage count was 193.09 ×10^4 and the Neutrophil count is listed as 2.54 ×10^4. In addition, the Total cell count in assay [1] (0.2 mg/kg) is on record as 291.09 ×10^4.

With `CCC(=O)O[C@]1(C(=O)SCF)[C@H](C)C[C@H]2[C@@H]3C=C(F)C4=CC(=O)C=C[C@]4(C)[C@@]3(F)[C@@H](O)C[C@@]21C`, the EC50 (as a rule, the concentration that produces a half-maximal response) in assay [2] is 0.0629 nM.

In assay [2], `C[C@@H]1C[C@H]2[C@@H]3C=C(F)C4=CC(=O)CC[C@]4(C)[C@@]3(F)[C@@H](O)C[C@]2(C)[C@@]1(O)C(=O)OCF` came in with an EC50 of 5 nM.

For the compound `CCC(=O)O[C@]1(C(=O)OCF)[C@H](C)C[C@H]2[C@@H]3C=C(F)C4=CC(=O)C=C[C@]4(C)[C@@]3(F)[C@@H](O)C[C@@]21C`, the EC50 in assay [2] was 0.0645 nM.

Turning to `C[C@@H]1C[C@H]2[C@@H]3C=C(F)C4=CC(=O)C=C[C@]4(C)[C@@]3(F)[C@@H](O)C[C@]2(C)[C@@]1(OC(=O)c1ccco1)C(=O)SCF`, in assay [2], the EC50 was 0.0141 nM and the “decrease of EC50 compared with fluticasone furoate” value is reported as 18%. In assay [1] (0.067 mg/kg), the Eosinophil count is recorded as 94.16 ×10^4, the Lymphocyte count is given as 4.81 ×10^4, the Macrophage count is 209.63 ×10^4 and the Neutrophil count was 3.64 ×10^4. For the same compound, in assay [1] (0.067 mg/kg), the Total cell count is listed as 312.23 ×10^4. In assay [1] (0.2 mg/kg), the Eosinophil count is reported as 25.34 ×10^4, the Lymphocyte count is on record as 2.03 ×10^4, the Macrophage count is recorded as 173.04 ×10^4 and the Neutrophil count is recorded as 3.12 ×10^4. Moreover, the Total cell count in assay [1] (0.2 mg/kg) is given as 203.53 ×10^4. In assay [1] (high-dose group (0.2 mg/kg)), the “eosinophil count compared with the model group” value was “significantly decreased”, the “lymphocyte count compared with the model group” value is “significantly decreased” and the “total cell count compared with the model group” value is listed as “significantly decreased”. Moreover, in assay [1] (high-dose group (0.2 mg/kg), decreased to a certain extent), the “neutrophil count compared with the model group” value is reported as “decreased”. Besides, in assay [1] (setting [3]), the “eosinophil count compared with the fluticasone furoate group” value is given as “significantly lower”, the “lymphocyte count compared with the fluticasone furoate group” value is “significantly lower” and the “total cell count compared with the fluticasone furoate group” value is “significantly lower”. In assay [1] (low-dose group (0.067 mg/kg)), the “eosinophil count compared with the model group” value is listed as “significantly decreased” and the “total cell count compared with the model group” value was “significantly decreased”. Moreover, in assay [1] (setting [4]), the “lymphocyte count compared with the model group” value was “decreased” and the “neutrophil count compared with the model group” value was “decreased”.

Consider `C[C@@H]1C[C@H]2[C@@H]3C=C(F)C4=CC(=O)C=C[C@]4(C)[C@@]3(F)[C@@H](O)C[C@]2(C)[C@@]1(O)C(=O)OCF`, for which the EC50 in assay [2] was 0.886 nM.

Regarding `C[C@@H]1C[C@H]2[C@@H]3C=C(F)C4=CC(=O)C=C[C@]4(C)[C@@]3(F)[C@@H](O)C[C@]2(C)[C@@]1(OC(=O)c1ccco1)C(=O)OCF`, in assay [2], the EC50 amounted to 0.0134 nM and the “decrease of EC50 compared with fluticasone furoate” value is recorded as 22%.
